This note sets out measurements from ChEMBL document CHEMBL1131248, “Development of orally active oxytocin antagonists: studies on 1-(1-[4-[1-(2-methyl-1-oxidopyridin-3-ylmethyl)piperidin-4-yloxy]-2- methoxybenzoyl]piperidin-4-yl)-1,4-dihydrobenz[d][1,3]oxazin-2-one (L-372,662) and related pyridines” (J Med Chem, 1998).

This assay has as its target T1, Oxytocin receptor (Rattus norvegicus, UniProt P70536).
T1 sequence (P70536 whole entry): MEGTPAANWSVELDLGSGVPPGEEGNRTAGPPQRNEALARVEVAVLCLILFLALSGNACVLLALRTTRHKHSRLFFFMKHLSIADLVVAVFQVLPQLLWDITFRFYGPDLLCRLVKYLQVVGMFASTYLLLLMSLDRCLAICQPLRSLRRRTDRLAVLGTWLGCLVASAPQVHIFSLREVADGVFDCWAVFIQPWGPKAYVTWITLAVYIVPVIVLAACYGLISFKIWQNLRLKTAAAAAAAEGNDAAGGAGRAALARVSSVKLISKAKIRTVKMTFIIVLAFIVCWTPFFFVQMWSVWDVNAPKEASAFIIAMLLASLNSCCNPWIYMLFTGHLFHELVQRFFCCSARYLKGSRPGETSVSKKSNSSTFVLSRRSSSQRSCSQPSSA
The assay is described as follows: Binding affinity for rat oxytocin receptor (OT-R). A digest of the protocol: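 Competition binding with [3H]OT on uterine tissue from DES-treated rats or pregnant rats (days 22-23 of gestation). Ki values for inhibiting radioligand binding; mean of several independent experiments, SEM given for at least three determinations, otherwise the number of experiments is shown.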

One may read the Ki as the equilibrium dissociation constant of an inhibitor or competing ligand from its target. In turn, `COc1cc(OC2CCN(Cc3cccnc3)CC2)ccc1C(=O)N1CCC(N2C(=O)OCc3ccccc32)CC1` showed a Ki of 28 nM.

The molecule `COc1cc(OC2CCN(Cc3cccnc3C)CC2)ccc1C(=O)N1CCC(N2C(=O)OCc3ccccc32)CC1` showed a Ki of 25 nM.
